Values of other authors in US10010502B2, “Device that delivers a sustained low-dose of a myopia-suppressing drug, while preserving pupillary function and accommodation” (AMORPHEX THERAPEUTICS LLC, priority 2015, dated 2018).

Test system: myopia progression
Details: in vivo

CCCN1CCC[C@@H]2Cc3n[nH]cc3C[C@H]21 [quinpirole]
myopia progression in animal models: retard myopia progression
